From PubChem BioAssay AID489030 (Sanford-Burnham Center for Chemical Genomics, 2010) come the findings set out here.

Protein sequences, listed by entry. Tags and fused reporters are not part of them. Lines headed by an entry give the natural chain unless they say otherwise; changes in a name come on top.
UniProt O14727: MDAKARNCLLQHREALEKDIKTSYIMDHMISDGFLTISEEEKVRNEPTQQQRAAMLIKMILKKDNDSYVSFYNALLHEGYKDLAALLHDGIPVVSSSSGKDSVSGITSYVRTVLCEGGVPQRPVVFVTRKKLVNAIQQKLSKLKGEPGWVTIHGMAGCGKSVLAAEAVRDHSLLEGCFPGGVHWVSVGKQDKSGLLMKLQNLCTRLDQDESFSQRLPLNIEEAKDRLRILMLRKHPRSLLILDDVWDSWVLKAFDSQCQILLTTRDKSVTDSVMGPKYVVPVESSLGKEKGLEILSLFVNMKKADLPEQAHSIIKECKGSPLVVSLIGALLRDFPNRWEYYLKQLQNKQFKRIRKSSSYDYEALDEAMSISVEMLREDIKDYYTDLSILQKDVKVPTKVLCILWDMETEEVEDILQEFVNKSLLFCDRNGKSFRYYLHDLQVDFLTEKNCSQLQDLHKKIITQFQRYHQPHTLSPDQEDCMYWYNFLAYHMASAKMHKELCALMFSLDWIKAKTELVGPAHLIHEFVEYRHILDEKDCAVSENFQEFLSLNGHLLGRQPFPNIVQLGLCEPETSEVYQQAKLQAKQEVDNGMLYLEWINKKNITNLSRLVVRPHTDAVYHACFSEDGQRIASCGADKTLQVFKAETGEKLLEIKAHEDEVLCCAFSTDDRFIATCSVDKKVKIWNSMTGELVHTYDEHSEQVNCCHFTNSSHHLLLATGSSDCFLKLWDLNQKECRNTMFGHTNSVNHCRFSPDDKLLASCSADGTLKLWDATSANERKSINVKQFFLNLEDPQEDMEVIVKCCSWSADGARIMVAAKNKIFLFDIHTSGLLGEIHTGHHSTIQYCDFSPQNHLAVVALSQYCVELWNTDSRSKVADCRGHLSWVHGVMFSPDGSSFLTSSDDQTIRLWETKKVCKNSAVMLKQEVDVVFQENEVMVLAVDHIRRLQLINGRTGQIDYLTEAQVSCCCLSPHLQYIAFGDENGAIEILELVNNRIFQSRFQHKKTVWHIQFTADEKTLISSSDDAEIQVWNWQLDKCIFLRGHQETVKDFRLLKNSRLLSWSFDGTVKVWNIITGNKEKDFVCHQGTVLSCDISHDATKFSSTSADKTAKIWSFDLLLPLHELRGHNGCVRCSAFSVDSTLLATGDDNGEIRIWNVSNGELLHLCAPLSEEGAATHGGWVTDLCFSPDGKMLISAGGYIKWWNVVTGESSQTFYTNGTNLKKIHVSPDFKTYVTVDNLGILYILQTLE

This is a selection; strong and weak results do not stand in their true shares. The source made the active and inactive calls. How the source made its calls: active means inhibition of at least 40% at 20 µM; inactive means the rest.

For this assay, the target named is Apoptotic protease-activating factor 1 (Homo sapiens) (UniProt O14727). Briefly: blockers of Apaf-1-driven caspase-3 activation – biochemical, DEVD-Rh110 fluorescence, uHTS, primary screen (AID 489030).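 Further: plate controls were DMSO wells for no effect and DEVD-CHO caspase inhibitor wells for full effect.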 As to conditions: reconstituted apoptosome caspase-3 activity, at 20 µM, hits give high values.
The term inhibition denotes the change of the read-out against control, counted positive when it falls. For `Cc1ccccc1CN(C)C(=O)COC(=O)C(O)(c1ccccc1)c1ccccc1`, the inhibition is inactive: 17.7%. Next, `CC(=O)c1ccc(N2CC2c2ccncc2)cc1` (configuration not stated): inactive: 2.26%; `CCOC(=O)NC(Sc1ccccc1)C(Cl)(Cl)Cl` (configuration not stated): inactive: 3.68%. Next, `Cc1ccc(NP(=O)(Oc2cccc(C)c2)Oc2cccc(C)c2)nc1`: inactive: -0.045%. For `c1ccc(-c2nn[nH]n2)c(-c2nn[nH]n2)c1` the value was inactive: 2.89%; for `CCNC(=S)/N=C(\N)N[N+](=O)[O-]`, inactive: -15.1%; for `O=C(NC1CCS(=O)(=O)C1)NP(=S)(Oc1ccccc1)Oc1ccccc1` (configuration not stated), inactive: -2.37%.

Turning to `CN(C)C(=O)Oc1noc2ccccc12`, the inhibition is inactive: -1.64%.

In the case of `Cc1ccccc1OP(=O)(Nc1ccccn1)Oc1ccccc1C`, the inhibition was inactive: 9.6%.

`CC(NC(=O)COC(=O)C(O)(c1ccccc1)c1ccccc1)c1ccccc1` (configuration not stated): the inhibition was inactive: 13.7%. On to `CCC(=O)N1C2C3N(C(=O)CC)C1C1N(C(=O)CC)C(C(N1C(=O)CC)N3C(=O)CC)N2C(=O)CC`, for which the inhibition is inactive: 13.1%. Next, `O=C(OC1CN2CCC1CC2)c1ccccc1` (configuration not stated): inactive: 4.25%; `Cc1ccc(OP(=O)(Nc2ccccn2)Oc2ccc(C)cc2)cc1`: inactive: 15.3%; `CC(=O)NC(SC(=S)N(CC(C)C)CC(C)C)C(Cl)(Cl)Cl` (configuration not stated): inactive: 1.34%. Regarding `COC(=O)c1cc2c(s1)N=C(c1ccccc1)N(C)P2(=O)N1CCOCC1` (configuration not stated), the inhibition is inactive: -0.879%. For `Cc1ccc(NP(=O)(Oc2ccccc2F)Oc2ccccc2F)nc1` the value was inactive: -2.97%. For `CN(C(=O)Cc1ccc(Cl)c(Cl)c1)[C@H]1CCCC[C@@H]1N1CCCC1` the value was inactive: -7.75%. Next, `CCOP(=O)(Nc1ccccc1)OCC`: inactive: 8.97%; `Cc1cc(SC(NC(=O)c2ccc(F)cc2)C(Cl)(Cl)Cl)ncn1` (configuration not stated): inactive: -4.2%; `O=P(Nc1nc2ccc(Cl)cc2s1)(c1ccccc1)c1ccccc1`: inactive: 14.4%. As to `O=C(O)c1ccccc1[As](=O)(O)O`, the inhibition is inactive: 3.26%. Next, `CC(=O)Nc1ccc([As](=O)(O)O)cc1`: inactive: 4.28%; `CCN(N=Nc1nonc1N)c1nonc1N`: inactive: -11.8%; `O=[N+]([O-])c1cc([N+](=O)[O-])c(CCN2CCOCC2)c([N+](=O)[O-])c1`: inactive: 17.8%. On to `Clc1ccc(Cl)c(NC2=NCC(CBr)S2)c1` (configuration not stated), for which the inhibition was inactive: 11.1%. For `CN1CCCC(OC(=O)C(c2ccccc2)c2ccccc2)C1` (configuration not stated) the value was inactive: -6.51%; for `Cc1ccc(OP(=O)(Nc2nccs2)Oc2ccc(C)cc2)cc1`, inactive: 5.2%. Consider `COc1ccccc1OP(=O)(Nc1ccc(C)cn1)Oc1ccccc1OC`, for which the inhibition is inactive: 4.38%. Next, `Cc1ccc(N/C(=N/P(=O)(N2CCOCC2)N2CCOCC2)N2CCOCC2)cc1`: inactive: -16.8%; `CN(C(=O)Cc1ccc(Cl)c(Cl)c1)[C@H]1CCCC[C@H]1N1CCCC1`: inactive: 5.22%; `NC(=O)c1cc([N+](=O)[O-])cc([N+](=O)[O-])c1N`: inactive: -4.52%.

For the compound `Cc1c2non([O-])c-2c(C)[n+](=O)[n+]1[O-]`, the inhibition is inactive: -1.51%. Next, `O=C(NC(Sc1ccncn1)C(Cl)(Cl)Cl)c1ccccc1` (configuration not stated): inactive: -2.17%. Regarding `Oc1ccccc1CNc1ccccn1`, the inhibition is inactive: -28.6%. Regarding `CC(C)CC(=O)NC(Sc1ccc(Cl)cc1)C(Cl)(Cl)Cl` (configuration not stated), the inhibition is inactive: -6.44%. Next, `Nc1cc(N)c2nonc2c1[N+](=O)[O-]`: inactive: -6.32%; `CCc1nc2c(n1)c1c(non1O)c1c2no[n+]1[O-]`: active: 58%; `O=[N+]([O-])c1cc([N+](=O)[O-])c(CCNc2ccccc2)c([N+](=O)[O-])c1`: inactive: 26.6%. For `Cc1ccc(NP(=O)(Oc2ccccc2)Oc2ccccc2)nc1` the value was inactive: 10.6%; for `O=[N+]([O-])c1cccc2n[nH]nc12`, inactive: 5.74%. Next, `CC(=O)N1C2C3N(C(C)=O)C1C1N(C(C)=O)C(C(N1C(C)=O)N3C(C)=O)N2C(C)=O`: inactive: -1.46%; `COc1ccc(C2=NCC(CBr)S2)cc1` (configuration not stated): inactive: -1.76%. On to `CC1CCN(C(=O)Oc2c(Cl)cc(Cl)c3cccnc23)CC1`, for which the inhibition is inactive: 23.9%. Next, `CN(C)C(=O)OCCc1n(C)cc[n+]1C`: inactive: 11.1%. For `CC(C)=N/N=C(\N)N[N+](=O)[O-]` the value was inactive: 7.16%; for `CCN(/C(=N/P(=O)(N1CCOCC1)N1CCOCC1)N1CCOCC1)c1ccc(OC)cc1`, inactive: 2.09%. With `C[N+]1=C2C=CC=CC=C2SC12C([N+](=O)[O-])=CC([N+](=O)[O-])=C[C-]2[N+](=O)[O-]` (configuration not stated), the inhibition was active: 51.7%. For `Nc1ccc([As](=O)(O)c2ccc(N)cc2)cc1` the value was inactive: 3.32%; for `O=C(Nc1cc([As](=O)(O)O)ccc1O)c1ccccc1`, inactive: 5.11%. For `O=[N+]([O-])c1cccc(NC2=NCC(CBr)S2)c1` (configuration not stated) the value was inactive: -11.1%.

For `O=[N+]([O-])c1ncn(CCn2ncnc2[N+](=O)[O-])n1`, the inhibition is inactive: -10.2%. For `CC(C)(C)C(=O)NC(Sc1ccncn1)C(Cl)(Cl)Cl` (configuration not stated) the value was inactive: -11.6%.
